Measurements taken from patent US8143403B2 (Bristol-Myers Squibb Company, priority 2008, dated 2012).

How the values were obtained:
[1] = system: i.v. hαCGRP-induced increase in middle meningeal artery diameter and facial blood flow; assay: Validation of facial blood flow as surrogate for intracranial artery dilation in the rat; type: in vivo; details: n=5 rats
[2] = system: CGRP-induced increase in laser Doppler facial blood flow; assay: Inhibition of CGRP-induced increase in laser Doppler facial blood flow in non-human primate; type: in vivo, common marmoset (Callithrix jacchus); details: hαCGRP i.v., increasing doses at 30 min intervals, n=6
Protocol: FIG. 4. […] Data are peak % change from baseline±sem, with each animal serving as its own control.
Saturation/Scatchard Analysis. […] Saturation data were analyzed using a one site binding equation to estimate apparent equilibrium dissociation constant (Kd) and the maximum number of binding sites (Bmax) (Prizm v4.0, Graphpad). […] Functional Antagonism/Schild analysis. Agonist stimulation of CGRP receptor complex leads to cyclic AMP (adenosine 3′5′-cyclic monophosphate) production via Gs-dependent activation of an adenylate cyclase (Juaneda C et al., TiPS, 2000; 21:432-438). Consequently, CGRP receptor antagonists inhibit CGRP-induced cyclic AMP formation in SK-N-MC cells which natively express the CGRP receptor complex (Doods H et al., Br J Pharmacol, 2000; 129(3):420-423). […] A Schild analysis format was used, which allowed investigation of the mechanism of antagonism. […] Various concentrations of CGRP were added and the cells were allowed to incubate 30 min at room temperature. The cells were lysed with lysis reagent and cAMP concentrations were determined by HTRF according to the manufacturer's instructions. A standard curve using known quantities of cAMP was evaluated in parallel to allow conversion of HTRF ratio to nM cAMP. The resulting curves were then evaluated using a Gaddum/Schild equation individually and with global fitting (Prizm v4.0, Graphpad). […]

With “hαCGRP: human αCGRP, calcitonin gene-related peptide, CGRP-receptor agonist used as vasodilator (ACDTATCVTHRLAGLLSRSGGVVKNNFVPTNVGSKAF; Calcitonin gene-related peptide 1; UniProt P06881 83-119, looked up)” the “percent increase in rat facial blood flow” value [1] was 100-120 % of baseline, the “percent increase in rat middle meningeal artery diameter” value [1] was 100-120 % of baseline and the “increase in laser Doppler facial blood flow” value [2] was “dose-dependent increase”.
